# OPERA 2.9 data: melting point values

From the experimental data distributed with OPERA 2.9.

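These are experimental values that the OPERA curators gathered from public databases to train and test their QSAR models. The files give a single number for a compound and property, which may rest on several reports. How each value was measured is not recorded, so precision varies. The measured form (salt, isomer or mixture) is not always the one drawn. Some upstream entries may be estimates or bounds without being marked so.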

Melting points are in °C.

For O=C(O)c1ccc(Cl)o1 the data give mp 181 °C. O=Cc1ccc(N2CCCCC2)s1 is reported with mp 74 °C. Listed for N#CCc1ccc(-n2cccn2)cc1: mp 128 °C. Listed for O=C(O)CNc1cccc(Cl)c1: mp 175 °C.

Cc1cc(=S)nc(C(C)C)[nH]1 has mp 162 °C. Nc1ccc(-c2nnco2)cc1 is reported with mp 156 °C. CSCCC(NC(=O)c1ccc(Cl)cc1Cl)C(=O)O (configuration not stated) is reported with mp 80 °C. For COC(=O)c1ccc(C(=O)O)cn1 the data give mp 211 °C.

Listed for O=C(O)c1cc2c(s1)CCCC2: mp 180 °C. For Cc1cc(C)c(OCC(=O)O)c(C)c1 the data give mp 151 °C. For Cc1c(C)c(-c2ccc(N)cc2)c(C)c(C)c1N the data give mp 198 °C. Listed for CC1(C)SCC(C(=O)O)NC1=O (configuration not stated): mp 206 °C.

O=Cc1ccc(-c2cccc(Br)c2)o1 is reported with mp 100 °C. ON=C1c2ccccc2CCc2ccccc21 has mp 170 °C. Listed for Clc1ccc(Nc2ccccc2)cc1: mp 74 °C. N#CCc1ccc2ccccc2n1 is reported with mp 46 °C.

The entry for Nc1c(Cl)nc(-c2ccccc2)nc1Cl lists mp 141 °C. Nc1cc(Cl)ccc1Sc1ccccc1 is reported with mp 63 °C. The entry for O=C1CCCN1c1ccc(O)cc1 lists mp 160 °C. The entry for O=C(O)CCn1cnc2ccccc2c1=O lists mp 182 °C.

O=C(O)c1ccc(CSc2ccc(Cl)cc2)cc1 is reported with mp 183 °C. Listed for O=C1C=CC=CC1=C1C=CNO1: mp 184.5 °C. The entry for Nc1c(C(=O)O)cnc2ccccc12 lists mp 304 °C. Listed for O=C(O)c1cc(-c2cccs2)nc2ccccc12: mp 200 °C.

For CCCS(=O)(=O)Nc1ccc(F)c(C(=O)c2c[nH]c3ncc(-c4ccc(Cl)cc4)cc23)c1F the data give mp 272 °C. C1CNCCN1.Cl.Cl has mp 335 °C. The entry for FC(F)(F)C(F)(F)C(F)(F)C(F)(F)C(F)(F)C(F)(F)C(F)(F)I lists mp -8 °C. The entry for O=C(O)CN1C(=O)c2ccccc2S1(=O)=O lists mp 219 °C.

CC(=O)c1sc2nc(C)cc(C)c2c1N is reported with mp 175 °C. O=C(O)CCCOc1ccc(Br)cc1 is reported with mp 131 °C. NN=C1c2ccccc2C(=O)C1C(=O)C(c1ccccc1)c1ccccc1 (configuration not stated) has mp 242 °C. CN(C)c1cccc(C(=O)NN)c1 has mp 100 °C.

Cc1nccc(C(=O)O)n1 has mp 207 °C. For O=C1CC2(CCCC2)C(=O)N1 the data give mp 106 °C. CC(=O)Nc1c(C)cccc1C(=O)O is reported with mp 205 °C. CC(CN1c2ccccc2Sc2ccccc21)[N+](C)(C)C.COS(=O)(=O)[O-] (configuration not stated) is reported with mp 208 °C.

Listed for CCC(c1ccc(OCCN(CC)CC)cc1)C(CC)c1ccc(OCCN(CC)CC)cc1.Cl.Cl (configuration not stated): mp 226 °C. CC(N)c1ccc(-n2cncn2)cc1 (configuration not stated) is reported with mp 79 °C. Listed for CC(C)C(NC(=O)COc1ccccc1)C(=O)O (configuration not stated): mp 166 °C. S=c1nc[nH]c2ccsc12 is reported with mp 272 °C.

CCN(CC)CCN1c2ccccc2Sc2ccccc21.Cl has mp 185 °C.

A selection of 4 entries from above:

structure (SMILES)	mp (°C)
Nc1c(C(=O)O)cnc2ccccc12	304
CC(=O)Nc1c(C)cccc1C(=O)O	205
ON=C1c2ccccc2CCc2ccccc21	170
O=C(O)c1cc2c(s1)CCCC2	180